Measured values published in patent US10487121B2, “D-peptide inhibitors of HIV entry and methods of use” (priority 2016, dated 2019).

What was measured:
[1] = Rat pharmacokinetics of cholesterol conjugates, Calvert study (Table 4 protocol); conditions: in vivo, iv, 1 mg/kg
Protocol: For PIE12 monomer conjugates, in-life studies were performed by Invitek (Hayward, Calif.). Trimeric conjugate in-life studies were performed at Navigen (Salt Lake City, Utah). […] At each timepoint, plasma was obtained using lithium heparin. […] Plasma samples were stored at −80° C. and shipped prior to bioanalysis.
The column temperature was maintained at 70° C.
Fifty microliter aliquots of plasma for each time point was precipitated with 2.5 volumes of ice-cold acetonitrile containing 2% trifluoroacetic acid (v/v) and 370 nM CPT12 as internal standard. […] The column temperature was maintained at 70° C.

[2] = in vivo, cited from earlier work

Compound	clearance [1]	extension of IV half-life compared to unconjugated interferon ([2]; human, iv)	clearance slowed ([2]; human)	increase of circulating half-life by the 40 kDa PEG [2]
CC(=O)N[C@H](Cc1c[nH]cn1)C(=O)N1CCC[C@@H]1C(=O)N[C@@H]1CSSC[C@H](C(=O)N[C@H](CCC(=O)O)C(=O)N[C@H](CC(C)C)C(=O)NCC(=O)N[C@H](CCCCNC(=O)CCOCCOCCOCCOCCNC(=O)CCOCC(COCCC(=O)NCCOCCOCCOCCOCCC(=O)NCCCC[C@@H](NC(=O)CNC(=O)[C@@H](CC(C)C)NC(=O)[C@@H](CCC(=O)O)NC(=O)[C@H]2CSSC[C@@H](NC(=O)[C@H]3CCCN3C(=O)[C@@H](Cc3c[nH]cn3)NC(C)=O)C(=O)N[C@H](CC(=O)O)C(=O)N[C@H](Cc3ccc(O)cc3)C(=O)N3CCC[C@@H]3C(=O)N[C@H](CCC(=O)O)C(=O)N[C@H](Cc3c[nH]c4ccccc34)C(=O)N[C@H](CCC(N)=O)C(=O)N[C@H](Cc3c[nH]c4ccccc34)C(=O)N[C@H](CC(C)C)C(=O)N2)C(N)=O)(COCCC(=O)NCCOCCOCCOCCOCCC(=O)NCCCC[C@@H](NC(=O)CNC(=O)[C@@H](CC(C)C)NC(=O)[C@@H](CCC(=O)O)NC(=O)[C@H]2CSSC[C@@H](NC(=O)[C@H]3CCCN3C(=O)[C@@H](Cc3c[nH]cn3)NC(C)=O)C(=O)N[C@H](CC(=O)O)C(=O)N[C@H](Cc3ccc(O)cc3)C(=O)N3CCC[C@@H]3C(=O)N[C@H](CCC(=O)O)C(=O)N[C@H](Cc3c[nH]c4ccccc34)C(=O)N[C@H](CCC(N)=O)C(=O)N[C@H](Cc3c[nH]c4ccccc34)C(=O)N[C@H](CC(C)C)C(=O)N2)C(N)=O)NC(=O)CCOCCOCCOCCOCCOCCOCCOCCOCCOCCOCCOCCOCCOCCOCCOCCOCCOCCOCCOCCOCCOCCOCCOCCOCCNC(=O)CCN2C(=O)CC(S[C@H]3CC[C@@]4(C)C(=CC[C@H]5[C@@H]6CC[C@H]([C@H](C)CCCC(C)C)[C@@]6(C)CC[C@@H]54)C3)C2=O)C(N)=O)NC(=O)[C@@H](CC(C)C)NC(=O)[C@@H](Cc2c[nH]c3ccccc23)NC(=O)[C@@H](CCC(N)=O)NC(=O)[C@@H](Cc2c[nH]c3ccccc23)NC(=O)[C@@H](CCC(=O)O)NC(=O)[C@H]2CCCN2C(=O)[C@@H](Cc2ccc(O)cc2)NC(=O)[C@@H](CC(=O)O)NC1=O (stereo partly shown) [CPT24]	0.4 mL/min/kg	–	–	–
PEGASYS: PEG-conjugated interferon with a single branched 40 kDa PEG, used in treatment of HCV	–	~20 fold	100 fold	25 fold
